{"source": "paper PMC10982999", "about": "“Structure-Guided Design and Optimization of Covalent VHL-Targeted Sulfonyl Fluoride PROTACs” (Journal of Medicinal Chemistry, 2024)", "key": {"[1]": {"target": "T1, BRD4 (HEK293 HiBiT-BRD4 Cln3 cells) (Homo sapiens, UniProt O60885)", "test": "BRD4 HiBiT degradation assay", "settings": "VH032 25 or 50 μM, 6 h"}, "[2]": {"target": "T1, BRD4 (HEK293 HiBiT-BRD4 Cln3 cells)", "format": "cell-based"}}}
{"smiles": "Cc1ncsc1-c1ccc(CNC(=O)[C@@H]2C[C@@H](O)CN2C(=O)[C@@H](NC(=O)COCCOCCOCCNC(=O)C[C@@H]2N=C(c3ccc(Cl)cc3)c3c(sc(C)c3C)-n3c(C)nnc32)C(C)(C)C)cc1", "note": "[MZ-1, reference compound]", "values": [{"measurement": "BRD4 degradation in presence of competing VH032", "setting": "[1]", "result": "significantly more affected"}, {"measurement": "relative decrease in degradation activity after washout", "setting": "[2]", "result": 48, "unit": "%"}]}
